Measurements taken from US20050026219A1, “Process for label-free measurement of modified substrate” (Boehringer Ingelheim Pharma GmbH & Co. KG, priority 2001, published 2005).

Target: EGF-receptor kinase (EGF-RK) (Homo sapiens, UniProt P00533)
Conditions: PGT 10 μg/50 μl, EGF-RK 1 Unit/50 μl, EGF-RK buffer with Brij 35
Experimental: The quantity depends mainly on the volumes which are still to be pipetted, the buffer being intended to make the volume of the phosphorylation assay up to the total of 100 μl.
Then 10 μl of 10% (v/v) DMSO solution are added, or if a substance is to be tested for possible enzyme-modulating properties, 10 μl of a test substance, i.e. a possible inhibitor or activator, dissolved in 10% (v/v) of DMSO, are pipetted in.
If an enzymatic reaction is to take place, the enzyme is added at this stage.
Then the substrate is added. The amounts of the substrates Poly-(Glu, Tyr) 4:1, (SEQ ID NO.:2) M-2165 and (SEQ ID NO.:3) Raytide™ EL used are specified in each case.
The reaction of phosphorylation is started here by the addition of 10 μl of the 1 mM ATP solution.
The incubation time is 30 minutes at +30° C., for example.
After the end of the incubation period, 20 μl of antibody solution (1.6.) are pipetted in, for example. The receptor, in this case the antibody, is used in excess. The amount which corresponds to an excess can very easily be determined by anyone skilled in the art by means of experiments on binding to a sensor surface to which a substance with a receptor binding site is coupled, with increasing amounts of receptor. In the case of reactions of phosphorylation, increasing amounts of receptor are used with a constant amount of substrate and kinase.
The incubation time with the antibody may be, for example, 30 minutes at ambient temperature.
After the end of the incubation period 50 μl of incubation mixture are taken and pipetted into the prepared measuring cell with the sensor to whose surface is coupled a substance with a receptor binding site.
The layer thickness of the sensor is measured, for example, by Reflectometric Interference Spectroscopy (RIfS) using a SPEKOL 1100 simultaneous spectral photometer made by Messrs Zeiss Jena, modified according to Schmitt et al. 1997.
The receptor (in this case the antibody) is used in excess, so that even if there is a total enzymatic reaction (in this case phosphorylation) of the substrate at least a slight binding signal will still be obtained by the binding of the receptor (antibody) to the sensor surface.
The reaction of phosphorylation is started by the addition of ATP.
At the start of the experiment a control and a complete phosphorylation without the addition of inhibitor are carried out.

Substance: Tyrphostin 47
- Optical layer thickness (10^-4M inhibitor): 2.344 nm
- Optical layer thickness (10^-5M inhibitor): 1.685 nm
- Optical layer thickness (10^-6M inhibitor): 0.847 nm
- Optical layer thickness (10^-7M inhibitor): 0.630 nm
- Optical layer thickness (10^-8M inhibitor): 0.578 nm

Read-outs that look alike come from different tables or passages of the source.
